Source: patent US11096980B2, “Method of using glycyrrhiza plant-based preparation to reduce toxic effect of polypeptide fungitoxin” (priority 2016, dated 2021)

Tested on: IPEC-J2 cells
Assay: TEER cell culture assay: protective effect against polypeptide fungitoxins
Format: cell-based, porcine
Settings: toxin 0.2-10 μM added on day 8
Procedure: In order to test the correlations of polypeptide fungitoxins on epithelial tissue under controlled conditions, in vitro studies were performed. Therein, well-characterized test systems based on cell cultures and described in the literature were employed. For feed additives, epithelial cells from the respective organ in question, e.g. in the present case IPEC-J2 cells from the porcine intestine, were preferred. The used epithelial cells from the porcine intestine offer the advantage of being non-transformed cells still having all the important properties of normal intestinal cells and large physiological similarities such as the formation of viable tight junction proteins, which are above all essential for the intestinal barrier, as well as the expression of characteristic enzymes and transport systems (e.g. P-glycoprotein, cytochrome P450 3A4, vit. B 12 transporters etc.).
For the in vitro examinations of a Glycyrrhiza dry extract, the latter was extracted once again, thus producing a secondary Glycyrrhiza extract. […]
Differentiated cells form a cell barrier, being strongly interconnected by tight junction proteins. […] The intactness of the cell barrier is measured by means of a volt-ohmmeter: The electrical resistance between the two compartments is referred to as TEER (transepithelial electrical resistance) value and represented in kOhm×cm^2. […]

Substance: beauvericin
- TEER value after addition of toxin (negative control): lowered
